Values quoted from earlier work, collected in publication PMC8836281, “Characterisation of Endogenous Peptides Present in Virgin Olive Oil” (International Journal of Molecular Sciences, 2022).

Assays:
ACE = details: C-terminal dipeptide of CPANGFY; read-out: ACE inhibition IC50 range; cited from earlier work
[1] = no reference given; cited from earlier work

**Q.** For FY: C-terminal dipeptide of CPANGFY, which IC50 (ACE) is on record?
**A.** 1.65 to 42.6 µM

**Q.** What about the “antihypertensive activity in vivo” value [1] of the same substance?
**A.** confirmed in vivo for antihypertensive activity
